Data taken from article PMC3794980, “Identification of Conserved and HLA Promiscuous DENV3 T-Cell Epitopes” (PLoS Neglected Tropical Diseases, 2013).

Experiments:
Assay in all cases: biochemical
Format in all cases: binding
DRB1*0405 = DRB1*0405 (Homo sapiens, UniProt P01903+P01911, A100R/A169T/D86S/F76Y/I96L/K127E/L162R/M171V/N62H/P40V/Q125Y/R42H/S133A/S149N/S66Y/V115G/V209L/W38E)
DRB1*1101 = DRB1*1101 (Homo sapiens, UniProt P01903+P01911, A100R/A169T/A87E/I96F/K41T/L162R/M171V/P40S/Q125H/Q178H/Q39Y/Q99D/R42S/S66Y/T262R/V115G/W38E)
DRB1*0802 = DRB1*0802 (Homo sapiens, UniProt P01903+P01911, A100R/A103L/A169T/F76Y/H45Y/I96F/K41T/L162R/M171V/P40S/Q125H/Q178H/Q39Y/Q99D/R218S/R42G/S66Y/V115G/W38E)
DRB1*1302 = DRB1*1302 (Homo sapiens, UniProt P01903+P01911, A100E/A169T/K41T/L162R/M171V/P40S/Q125H/Q178H/Q39Y/Q99D/R42S/S66N/T262R/V115G/W38E/Y61H)
DRB1*0401 = DRB1*0401 (Homo sapiens, UniProt P01903+P01911, A100K/A169T/F76Y/I96L/K127E/L162R/M171V/N62H/P40V/Q125Y/R42H/S133A/S149N/S66Y/V115G/V209L/W38E)
DRB1*0901 = DRB1*0901 (Homo sapiens, UniProt P01903+P01911, A100R/A103E/D57H/D86V/F55Y/F60I/F76Y/I96F/K127E/L162R/M171V/P40D/Q125H/Q99R/R33Q/R42F/S133A/S66N/T210M/V115G/W38K/Y107V/Y59G/Y89S)
DRB1*0701 = DRB1*0701 (Homo sapiens, UniProt P01903+P01911, A100R/A102G/A103Q/D57E/D86V/E43K/F76Y/K127E/L162R/M171V/P40G/Q125H/Q99D/R33Q/R42Y/R54Q/S133A/S66F/T210M/V115G/Y107V/Y59L/Y89S)
DRB1*0101 = DRB1*0101 (Homo sapiens, UniProt P01903+P01911, A100R/D57E/F55L/F60I/F76Y/I96L/L162R/M171V/P40L/Q125E/R42F/V115G/Y59C)
DRB1*0301 = DRB1*0301 (Homo sapiens, UniProt P01903+P01911, A100K/A102G/A103R/A169T/F55Y/I96L/K41T/L162R/M171V/P40S/Q125H/Q178H/Q39Y/R42S/S66N/T106N/T262R/W38E/Y61H)
DRB1*1501 = DRB1*1501 (Homo sapiens, UniProt P01903+P01911)
DRB1*0404 = DRB1*0404 (Homo sapiens, UniProt P01903+P01911, A100R/A169T/F76Y/I96L/K127E/L162R/M171V/N62H/P40V/Q125Y/R42H/S133A/S149N/S66Y/V209L/W38E)
[1] = read-out: Binding Affinity (nM) DRB1*1101
[2] = competitive inhibition of radiolabeled standard peptide, '-' distinct from ND, read-out: Binding Affinity (nM) DRB1*1302
[3] = read-out: Binding Affinity (nM) DRB1*0401
[4] = competitive inhibition of radiolabeled standard peptide, '-' distinct from ND, read-out: Binding Affinity (nM) DRB1*0901
[5] = read-out: Binding Affinity (nM) DRB1*0701

| Structure (SMILES) | IC50 (DRB1*0405) [µM] | IC50 (DRB1*1101; [1]) [nM] | IC50 (DRB1*0802) [nM] | IC50 (DRB1*1302) [nM] | IC50 (DRB1*0401) [nM] | IC50 (DRB1*0901) [nM] | IC50 (DRB1*0701) [nM] | IC50 (DRB1*0101) [µM] | IC50 (DRB1*0301; read-out: Binding Affinity (nM) DRB1*0301) [nM] | IC50 (DRB1*1501) [µM] | IC50 (DRB1*0404) [µM] | IC50 (DRB1*0802; read-out: Binding Affinity (nM) DRB1*0802) [nM] | IC50 (DRB1*1302; [2]) [nM] | IC50 (DRB1*0401; [3]) [nM] | IC50 (DRB1*0901; [4]) [nM] | IC50 (DRB1*0301) [nM] | IC50 (DRB1*1101) [nM] | IC50 (DRB1*0701; [5]) [nM] | IC50 (DRB1*1302; read-out: Binding Affinity (nM) DRB1*1302) [nM] |
| --- | --- | --- | --- | --- | --- | --- | --- | --- | --- | --- | --- | --- | --- | --- | --- | --- | --- | --- | --- |
| CSCC[C@H](NC(=O)[C@H](C)NC(=O)CNC(=O)[C@H](CCC(=O)O)NC(=O)[C@H](CCC(N)=O)NC(=O)[C@H](CO)NC(=O)CNC(=O)[C@@H](N)CC(C)C)C(=O)N[C@@H](Cc1c[nH]cn1)C(=O)N[C@H](C(=O)N[C@@H](C)C(=O)N[C@@H](CC(C)C)C(=O)N[C@H](C(=O)NCC(=O)N[C@@H](C)C(=O)O)[C@@H](C)O)[C@@H](C)O | 13.2 | > 20000 | 3650 | 6610 | 4330 | 3720 | 2310 | 0.588 | > 20000 | 6.06 | 17.1 |  |  |  |  |  |  |  |  |
| CSCC[C@H](N)C(=O)N[C@@H](CCCNC(=N)N)C(=O)N[C@@H](CS)C(=O)N[C@H](C(=O)NCC(=O)N[C@H](C(=O)NCC(=O)N[C@@H](CC(N)=O)C(=O)N[C@@H](CCCNC(=N)N)C(=O)N[C@@H](CC(=O)O)C(=O)N[C@@H](Cc1ccccc1)C(=O)N[C@H](C(=O)N[C@@H](CCC(=O)O)C(=O)NCC(=O)N[C@@H](CC(C)C)C(=O)O)C(C)C)C(C)C)C(C)C [Envelope 1-15] | 3.13 | > 20000 |  |  |  |  | 6720 | 11.1 |  | 5.79 | 6.34 | > 20000 | 6090 | > 20000 | > 20000 | 5620 |  |  |  |
| CC[C@H](C)[C@H](NC(=O)[C@H](C)N)C(=O)N[C@@H](CC(C)C)C(=O)N1CCC[C@H]1C(=O)N[C@@H](CCC(=O)O)C(=O)N[C@@H](Cc1ccc(O)cc1)C(=O)NCC(=O)N[C@H](C(=O)N[C@@H](CC(C)C)C(=O)NCC(=O)N[C@@H](CC(C)C)C(=O)N[C@@H](CCC(=O)O)C(=O)N[C@@H](CS)C(=O)N[C@@H](CO)C(=O)N1CCC[C@H]1C(=O)O)[C@@H](C)O [Envelope 171-185] | 1.29 |  | 91 | 2270 | 485 | 1300 |  | 0.063 |  | 3.78 | 3.23 |  |  |  |  | 2630 | 13800 | > 20000 |  |
| CC(C)[C@H](N)C(=O)N[C@H](C(=O)N[C@@H](Cc1ccccc1)C(=O)N[C@@H](CCCCN)C(=O)N[C@@H](CC(N)=O)C(=O)N[C@@H](C)C(=O)N[C@@H](Cc1c[nH]cn1)C(=O)N[C@@H](C)C(=O)N[C@@H](CCCCN)C(=O)N[C@@H](CCCCN)C(=O)N1CCC[C@H]1C(=O)N[C@@H](CCC(=O)O)C(=O)N[C@H](C(=O)N[C@H](C(=O)N[C@H](C(=O)O)C(C)C)C(C)C)C(C)C)[C@@H](C)O [Envelope 236-250] | 8.61 |  | 419 |  |  | 1520 | 560 | 0.34 |  |  | 8.86 |  |  | > 20000 |  | 9090 | 10200 |  | > 20000 |
| CC(C)C[C@H](NC(=O)[C@@H](NC(=O)[C@H](Cc1ccccc1)NC(=O)[C@@H](NC(=O)[C@H](CC(N)=O)NC(=O)[C@@H](N)[C@@H](C)O)[C@@H](C)O)C(C)C)C(=O)N[C@@H](CCCCN)C(=O)N[C@@H](CCCCN)C(=O)N[C@@H](CCC(=O)O)C(=O)N[C@H](C(=O)N[C@@H](CO)C(=O)N[C@@H](CCC(=O)O)C(=O)N[C@H](C(=O)N[C@@H](CCC(N)=O)C(=O)N[C@@H](Cc1c[nH]cn1)C(=O)O)[C@@H](C)O)C(C)C [Envelope 301-315] | 2.57 |  | 59 |  | 27 |  |  | 2.03 |  | 4.24 | 4.88 |  | > 20000 |  | > 20000 | 2310 | 775 | > 20000 |  |

Read-outs that look alike come from different tables or passages of the source.
